We go through one compound from ChEMBL document CHEMBL4007391, “Tackling Fungal Resistance by Biofilm Inhibitors” (J Med Chem, 2017).

In the data set the test system is HepG2. The data set can be described thus: Cytotoxicity against human HepG2 assessed as reduction in cell viability after 24 hrs by CellTiter-Glo luminescent assay. Format: cell-based. The conditions noted are these: hepg2, 24 h.

`CCN(CCO)CCO.Oc1c(Cl)c(Cl)c(Cl)c(Cl)c1Cl`: the CC50 was 127 µM.

A word on the CC50: it is the concentration giving 50% cytotoxicity.
